Patent US12558356B2, “Immunophilin binding agents and uses thereof” (The Regents of the University of California, priority 2019, dated 2026)

Protein sequences, listed by entry. Tags and fused reporters are not part of them.
UniProt P62942, whole entry: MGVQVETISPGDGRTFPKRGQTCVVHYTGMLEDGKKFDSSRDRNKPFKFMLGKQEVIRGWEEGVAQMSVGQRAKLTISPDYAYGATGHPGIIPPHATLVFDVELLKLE

Legend:
[1] = system: Src, Csk and DDR2
[2] = molecular target: FKBP12 (Homo sapiens (Human), UniProt P62942); assay: FKBP12 binding assay (fluorescence polarization)

Structure (SMILES)	dependence of activity on FKBP12 [1]	Kd [2] [nM]
CO[C@H]1C/C(C)=C/[C@@H](CCCC(=O)N2CCN(c3cc(Nc4ncc(C(=O)Nc5c(C)cccc5Cl)s4)nc(C)n3)CC2)C(=O)C[C@H](O)[C@@H](C)[C@@H](/C(C)=C/[C@@H]2CC[C@@H](O)[C@H](OC)C2)OC(=O)[C@@H]2CCCCN2C(=O)C(=O)[C@]2(O)O[C@H]([C@@H](OC)C1)[C@@H](OC)C[C@H]2C	dependent on FKBP12	
CCC(C)(C)C(=O)C(=O)N1CCCC[C@H]1C(=O)O[C@H](CCc1ccc(OC)c(OC)c1)c1cccc(N)c1 [SLF, reference compound]		23
CCC(C)(C)C(=O)C(=O)N1CCCC[C@H]1C(=O)O[C@H](CCc1ccc(OC)c(OC)c1)c1cccc(NC(=O)[C@H](C)N)c1 [ZZY01-059]		13.6
